The values below come from patent publication US20160287564A1, “METHODS OF ADMINISTERING GLUTAMINASE INHIBITORS” (Calithera Biosciences, Inc., priority 2015, published 2016).

Structures are written as SMILES.

A short description of data set [1]: Safety: dose-limiting toxicity and treatment-related adverse events in Examples 1 and 2. To be noted: in more than 10% of the subjects.
A short description of data set [2]: Plasma pharmacokinetics after oral TID/BID dosing, fasted or fed, in human subjects with acute leukemia.

As to `O=C(Cc1cccc(OC(F)(F)F)c1)Nc1ccc(CCCCc2nnc(NC(=O)Cc3ccccn3)s2)nn1` [CB-839], the “grade 3 or higher treatment-related adverse events” value in data set [1] was “No grade 3 or higher adverse events were considered treatment-related in more than 10% of the subjects”. The exposure versus dose entry in data set [2] (100 to 1000 mg per dose TID, oral) was “increase in exposure was demonstrated with increasing dose”.

As for `O=C(Cc1cccc(OC(F)(F)F)c1)Nc1ccc(CCCCc2nnc(NC(=O)Cc3ccccn3)s2)nn1` [compound of formula III], the “drug exposure, fed BID group versus fasted TID group” value in data set [2] (600 mg BID fed (1200 mg/day) vs 600 mg TID fasted (1800 mg/day)) was “each group had the same amount of drug exposure”.
